We go through 1 compound from paper PMC6376317, “Fluoromethylcyclopropylamine derivatives as potential in vivo toxicophores – A cautionary disclosure” (Bioorganic & Medicinal Chemistry Letters, 2019).

By UniProt entry, the sequences of proteins in these tests, tags left out.
UniProt Q86W56, whole entry, species assumed: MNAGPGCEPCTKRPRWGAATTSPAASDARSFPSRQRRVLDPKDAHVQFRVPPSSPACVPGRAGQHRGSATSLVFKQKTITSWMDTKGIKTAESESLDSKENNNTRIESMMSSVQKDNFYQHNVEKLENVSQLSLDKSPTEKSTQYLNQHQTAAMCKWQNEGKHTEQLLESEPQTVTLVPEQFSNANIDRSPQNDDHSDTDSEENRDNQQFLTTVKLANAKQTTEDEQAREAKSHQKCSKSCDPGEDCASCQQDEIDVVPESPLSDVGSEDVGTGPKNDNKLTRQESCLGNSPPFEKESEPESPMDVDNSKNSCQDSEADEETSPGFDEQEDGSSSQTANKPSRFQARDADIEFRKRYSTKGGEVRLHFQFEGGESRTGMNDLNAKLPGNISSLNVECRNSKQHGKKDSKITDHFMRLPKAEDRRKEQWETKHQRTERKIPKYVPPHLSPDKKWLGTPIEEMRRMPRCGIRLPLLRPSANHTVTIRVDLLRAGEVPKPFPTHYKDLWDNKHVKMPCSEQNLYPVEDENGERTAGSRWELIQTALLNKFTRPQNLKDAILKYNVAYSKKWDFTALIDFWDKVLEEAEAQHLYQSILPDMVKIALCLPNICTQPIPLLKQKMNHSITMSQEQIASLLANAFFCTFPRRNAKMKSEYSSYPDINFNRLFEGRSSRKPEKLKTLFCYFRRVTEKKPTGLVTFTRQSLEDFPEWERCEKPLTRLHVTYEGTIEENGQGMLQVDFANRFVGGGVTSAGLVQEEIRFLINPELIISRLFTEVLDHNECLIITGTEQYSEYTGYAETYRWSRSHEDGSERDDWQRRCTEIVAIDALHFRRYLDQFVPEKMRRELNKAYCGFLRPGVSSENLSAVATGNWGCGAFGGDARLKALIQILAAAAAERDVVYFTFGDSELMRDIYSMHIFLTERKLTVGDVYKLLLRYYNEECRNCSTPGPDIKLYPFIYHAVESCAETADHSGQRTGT

In series [1] the target is T1, PARG (Homo sapiens, UniProt Q86W56). It counts as biochemical. Particulars: geometric mean of at least two independent determinations; read-out: PARG Enzyme Activity.
Series [2] addresses T1, PARG. Type of series: cell-based. Particulars: geometric mean of at least two independent determinations; read-out: PARG Cell Assay.
Series [3] in a line: In vivo pharmacokinetics in CD-1 mice. More on the design: species or system mouse. Particulars: oral dose 5 (mg/kg); defined as [Cmax(free)]/Cell IC50; male CD-1 mice. As to the method: Pharmacokinetics were studied in 6-8 week old male CD-1 mice following single intravenous or oral administration. Compounds were formulated as solutions comprising up to 10% DMSO with up to 10% Tween80 in saline at a concentration of approximately 1 mM. Doses were administered at 1 mg/kg (intravenous) or 5 mg/kg (oral gavage) unless otherwise stated. Blood samples were collected as dried blood spots (Agilent Bond Elut DMS cards) and assayed following solvent extraction using methanol, through a phospholipid removal plate (Phree phospholipid removal plates, Phenomenex) followed by LC-MS/MS analysis. The time-points for blood collection were as follows: oral (0.5, 1, 3, 5 and 24 h); intravenous (0.1, 0.25, 0.75, 2, 5 and 24 h). The resulting concentration-time data were analyzed by non-compartmental methods (PK Solver, Excel Add-In).

Where two headings read alike, the source gives them in different places.

On to `CCn1c(=O)n(Cc2cnn(C)c2)c(=O)c2cc(S(=O)(=O)NC3(C)CC3)ccc21` [Compound 9], for which the IC50 on PARG [1] is 170 nM; on PARG [2] it was 80 nM. Also, the “Fold exposure relative to cell IC50” value in series [3] was 6.4.
